Like-named read-outs stand apart in the source and are kept apart here.
What was measured:
[1] = biological target: T1, DRB1*0802 (Homo sapiens, UniProt P01903+P01911, A100R/A103L/A169T/F76Y/H45Y/I96F/K41T/L162R/M171V/P40S/Q125H/Q178H/Q39Y/Q99D/R218S/R42G/S66Y/V115G/W38E); assay: Class II peptide-binding assay DRB1*0802 (DR8w2)
T1 construct: Epstein-Barr virus (EBV) transformed homozygous cell lines were used as sources of human HLA Class II molecules; endogenous in cells; host or cells: OLL (EBV-transformed homozygous B cell line)

The chains behind the UniProt entries cited, without tags or fusion partners. Residues count along the entry.
UniProt P01920, 33-261: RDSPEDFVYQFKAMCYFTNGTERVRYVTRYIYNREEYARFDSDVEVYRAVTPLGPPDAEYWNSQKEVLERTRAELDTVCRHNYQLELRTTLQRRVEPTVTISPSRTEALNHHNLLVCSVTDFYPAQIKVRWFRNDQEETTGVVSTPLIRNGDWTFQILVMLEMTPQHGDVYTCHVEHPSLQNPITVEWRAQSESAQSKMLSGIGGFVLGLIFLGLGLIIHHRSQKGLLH

[2] = biological target: T2, DRB1*0401 (Homo sapiens, UniProt P01903+P01911, A100K/A169T/F76Y/I96L/K127E/L162R/M171V/N62H/P40V/Q125Y/R42H/S133A/S149N/S66Y/V115G/V209L/W38E); assay: Class II peptide-binding assay DRB1*0401 (DR4w4)
T2 construct: Epstein-Barr virus (EBV) transformed homozygous cell lines were used as sources of human HLA Class II molecules; endogenous in cells; host or cells: PREISS (EBV-transformed homozygous B cell line)

[3] = biological target: T3, DRB1*0405 (Homo sapiens, UniProt P01903+P01911, A100R/A169T/D86S/F76Y/I96L/K127E/L162R/M171V/N62H/P40V/Q125Y/R42H/S133A/S149N/S66Y/V115G/V209L/W38E); assay: Class II peptide-binding assay DRB1*0405 (DR4w15)
T3 construct: Epstein-Barr virus (EBV) transformed homozygous cell lines were used as sources of human HLA Class II molecules; endogenous in cells; host or cells: KT3 (EBV-transformed homozygous B cell line)

[4] = biological target: T4, DRB1*1501 (Homo sapiens, UniProt P01903+P01911); assay: Class II peptide-binding assay DRB1*1501 (DR2w2b)
T4 construct: expressed in transfected cells; host or cells: transfected fibroblasts L466.1

[5] = biological target: T5, DRB1*0101 (Homo sapiens, UniProt P01903+P01911, A100R/D57E/F55L/F60I/F76Y/I96L/L162R/M171V/P40L/Q125E/R42F/V115G/Y59C); assay: Class II peptide-binding assay DRB1*0101 (DR1)
T5 construct: Epstein-Barr virus (EBV) transformed homozygous cell lines were used as sources of human HLA Class II molecules; endogenous in cells; host or cells: LG2 (EBV-transformed homozygous B cell line)

[6] = biological target: T6, DRB1*0701 (Homo sapiens, UniProt P01903+P01911, A100R/A102G/A103Q/D57E/D86V/E43K/F76Y/K127E/L162R/M171V/P40G/Q125H/Q99D/R33Q/R42Y/R54Q/S133A/S66F/T210M/V115G/Y107V/Y59L/Y89S); assay: Class II peptide-binding assay DRB1*0701 (DR7)
T6 construct: Epstein-Barr virus (EBV) transformed homozygous cell lines were used as sources of human HLA Class II molecules; endogenous in cells; host or cells: PITOUT (EBV-transformed homozygous B cell line)

[7] = biological target: DRB1*0901 (Homo sapiens, UniProt P01903+P01911, A100R/A103E/D57H/D86V/F55Y/F60I/F76Y/I96F/K127E/L162R/M171V/P40D/Q125H/Q99R/R33Q/R42F/S133A/S66N/T210M/V115G/W38K/Y107V/Y59G/Y89S); assay: Class II peptide-binding assay DRB1*0901 (DR9)
[8] = biological target: T7, DRB1*1101 (Homo sapiens, UniProt P01903+P01911, A100R/A169T/A87E/I96F/K41T/L162R/M171V/P40S/Q125H/Q178H/Q39Y/Q99D/R42S/S66Y/T262R/V115G/W38E); format: binding
T7 construct: Epstein-Barr virus (EBV) transformed homozygous cell lines were used as sources of human HLA Class II molecules; endogenous in cells; host or cells: SWEIG (EBV-transformed homozygous B cell line)

[9] = biological target: T8, DRB1*1302 (Homo sapiens, UniProt P01903+P01911, A100E/A169T/K41T/L162R/M171V/P40S/Q125H/Q178H/Q39Y/Q99D/R42S/S66N/T262R/V115G/W38E/Y61H); assay: Class II peptide-binding assay DRB1*1302 (DR6w19)
T8 construct: Epstein-Barr virus (EBV) transformed homozygous cell lines were used as sources of human HLA Class II molecules; endogenous in cells; host or cells: HO301 / H0301 (EBV-transformed homozygous B cell line)

[10] = biological target: DQB1*0301 (Homo sapiens, UniProt P01909+P01920); assay: Class II peptide-binding assay DQB1*0301
[11] = biological target: T9, DRB1*0404 (Homo sapiens, UniProt P01903+P01911, A100R/A169T/F76Y/I96L/K127E/L162R/M171V/N62H/P40V/Q125Y/R42H/S133A/S149N/S66Y/V209L/W38E); assay: Class II peptide-binding assay DRB1*0404 (DR4w14)
T9 construct: Epstein-Barr virus (EBV) transformed homozygous cell lines were used as sources of human HLA Class II molecules; endogenous in cells; host or cells: BIN40 (EBV-transformed homozygous B cell line)

[12] = inhibition of radiolabeled probe binding, — read as no appreciable binding

CC[C@H](C)[C@H](NC(=O)[C@H](CCC(=O)O)NC(=O)[C@H](CCC(=O)O)NC(=O)[C@@H]1CCCN1)C(=O)N[C@@H](CCCCN)C(=O)N[C@@H](CCC(N)=O)C(=O)N[C@@H](CC(C)C)C(=O)N[C@@H](CCC(N)=O)C(=O)N[C@@H](CCC(N)=O)C(=O)N[C@@H](Cc1ccccc1)C(=O)N[C@@H](CCC(N)=O)C(=O)N[C@@H](CCCCN)C(=O)N[C@@H](CCC(=O)O)C(=O)N[C@@H](CC(=O)O)C(=O)N[C@@H](C)C(=O)O
IC50 ([1]; IFNb 15-mer peptides, Table 5D): 3.87 µM

C[C@H](NC(=O)[C@H](CC(=O)O)NC(=O)[C@H](CC(=O)O)NC(=O)[C@H](CC(N)=O)NC(=O)[C@H](Cc1c[nH]cn1)NC(=O)[C@H](CO)NC(=O)[C@H](CC(N)=O)NC(=O)[C@@H](NC(=O)[C@H](CC(=O)O)NC(=O)[C@H](Cc1ccccc1)NC(=O)[C@H](CCCCN)NC(=O)[C@H](CO)NC(=O)[C@H](Cc1ccc(O)cc1)NC(=O)[C@@H](NC(=O)[C@@H](N)CCC(N)=O)[C@@H](C)O)[C@@H](C)O)C(=O)O
IC50 [1, 12]: 3.58 µM

CC[C@H](C)[C@H](NC(=O)[C@@H](N)CO)C(=O)N1CCC[C@H]1C(=O)N[C@H](C(=O)N1CCC[C@H]1C(=O)N[C@@H](CO)C(=O)N[C@@H](CC(N)=O)C(=O)N[C@@H](CCCNC(=N)N)C(=O)N[C@@H](CCC(=O)O)C(=O)N[C@@H](CCC(=O)O)C(=O)N[C@H](C(=O)N[C@@H](CCC(N)=O)C(=O)N[C@@H](CCC(N)=O)C(=O)N[C@@H](CCCCN)C(=O)N[C@@H](CO)C(=O)O)[C@@H](C)O)[C@@H](C)O
IC50 [2, 12]: 17.9 µM | IC50 [3, 12]: 1.75 µM

CC(C)C[C@H](NC(=O)[C@H](CCCCN)NC(=O)[C@H](CCC(=O)O)NC(=O)[C@H](CCC(=O)O)NC(=O)[C@H](CC(C)C)NC(=O)[C@@H](N)C(C)C)C(=O)N[C@@H](CCC(=O)O)C(=O)N[C@@H](CCCCN)C(=O)N[C@@H](CCC(=O)O)C(=O)N[C@@H](CC(=O)O)C(=O)N[C@@H](Cc1ccccc1)C(=O)N[C@H](C(=O)N[C@@H](CCCNC(=N)N)C(=O)NCC(=O)N[C@@H](CCCCN)C(=O)O)[C@@H](C)O
IC50 ([2]; IFNb 15-mer peptides, Table 5D): 4.61 µM | IC50 ([4]; IFNb 15-mer peptides, Table 5D): 9500 nM | IC50 ([5]; IFNb 15-mer peptides, Table 5D): 12.2 µM | IC50 ([6]; IFNb 15-mer peptides, Table 5D): 8.03 µM

CC[C@H](C)[C@H](NC(=O)[C@H](CO)NC(=O)[C@H](C)NC(=O)[C@H](CO)NC(=O)[C@@H](NC(=O)[C@H](CCCCN)NC(=O)[C@H](CO)NC(=O)[C@@H]1CCCN1C(=O)[C@H](Cc1ccccc1)NC(=O)[C@H](C)NC(=O)[C@@H](NC(=O)[C@H](CO)NC(=O)[C@H](CCC(N)=O)NC(=O)[C@H](CS)NC(=O)[C@@H](NC(=O)[C@@H](NC(=O)[C@@H](N)Cc1c[nH]c2ccccc12)[C@@H](C)O)[C@@H](C)O)[C@@H](C)CC)[C@@H](C)O)C(=O)NCC(=O)N[C@@H](CO)C(=O)N[C@@H](CC(C)C)C(=O)O
IC50 [4]: 556 nM | IC50 [3]: 2.55 µM | IC50 [7]: 1.72 µM | IC50 [1]: 3.05 µM

CC[C@H](C)[C@H](NC(=O)[C@@H](NC(=O)[C@H](CCCCN)NC(=O)[C@@H](N)Cc1ccc(O)cc1)[C@@H](C)O)C(=O)N[C@@H](C)C(=O)N[C@@H](Cc1ccc(O)cc1)C(=O)N[C@@H](CC(=O)O)C(=O)N[C@@H](CCC(=O)O)C(=O)N[C@@H](CCC(=O)O)C(=O)N[C@@H](C)C(=O)N[C@@H](CCCNC(=N)N)C(=O)N[C@@H](CCCNC(=N)N)C(=O)O
IC50 [4]: > 20000 nM | IC50 [3]: > 2.5 µM | IC50 [8]: > 20 µM | IC50 [9]: > 10 µM | IC50 [5]: > 20 µM | IC50 [7]: > 10 µM | IC50 [6]: > 20 µM | IC50 [10]: > 20 µM | IC50 [11]: > 20 µM | IC50 [1]: > 20 µM

Source: patent publication US20070184519A1, “Peptides, polypeptides, and proteins of reduced immunogenicity and methods for their production” (priority 2003, published 2007)
